This note sets out measurements from PubChem BioAssay AID492947 (National Center for Advancing Translational Sciences (NCATS), 2010).

Sequences of proteins named here, by UniProt entry; tags and fusion partners are left off.
UniProt P07550, whole entry: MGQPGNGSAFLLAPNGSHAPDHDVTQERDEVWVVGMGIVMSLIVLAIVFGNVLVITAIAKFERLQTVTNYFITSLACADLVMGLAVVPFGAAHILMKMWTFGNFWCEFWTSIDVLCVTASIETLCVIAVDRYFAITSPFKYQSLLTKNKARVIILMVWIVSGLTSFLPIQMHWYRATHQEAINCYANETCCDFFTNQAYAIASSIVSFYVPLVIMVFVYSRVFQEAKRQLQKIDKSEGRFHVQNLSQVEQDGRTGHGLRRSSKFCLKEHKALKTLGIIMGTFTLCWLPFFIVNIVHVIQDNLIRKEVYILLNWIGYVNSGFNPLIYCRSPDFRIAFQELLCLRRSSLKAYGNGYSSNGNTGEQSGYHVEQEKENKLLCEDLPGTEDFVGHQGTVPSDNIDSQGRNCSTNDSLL

This is a selection; strong and weak results do not stand in their true shares. Activity calls are given as the source filed them. Calls follow the shape of the dose curve; as a rule, active = well fitted activation curve with a large enough effect; inconclusive = small, poorly fitted or top-dose-only effect; inactive = flat fitted curve, though single readings scatter.

This test addresses Beta-2 adrenergic receptor (Homo sapiens) (UniProt P07550). The test is described as follows: qHTS assay of beta-arrestin-biased ligands of beta2-adrenergic receptor.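 Also: 0% = DMSO controls and full agonism = EC100 isoproterenol or metaproterenol; nearly all actives have a fitted effect of over 65% in size.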 The note with it: beta-arrestin recruitment to beta2AR, cell-based reporter; at 46.1 µM (top of the series). An excerpt: NIH Molecular Libraries Probe Production Network [MLPCN]
NIH Chemical Genomics Center [NCGC]
PI: Bryan Roth and Bob Lefkowitz
The concept of biased agonism is an emerging concept of molecular pharmacology which proposes that seven transmembrane receptors (7TMRs) or G protein-coupled receptors (GPCRs), exist in multiple signaling conformations and complexes and that ligands (either agonists or antagonists) can induce signaling biased responses for distinct signal transduction cascades.
Furthermore, accumulating evidence over the last decade has drawn attention to a novel function of beta-arrestins as signal transducers that scaffold various signaling molecules upon activation of 7TMRs. […] This beta-arrestin-biased signaling presumably leads to distinct physiological outcomes from those by G protein activation.
Additionally, the active receptor conformations which […] on this beta-arrestin signaling are likely different from those activating G protein signaling
The goal of this screening project will be to discover and optimize novel beta-arrestin-biased ligands for beta2-AR signaling. A luminescent cell-based assay for beta2-AR-mediated agonism, known as the Tango assay, has been validated in which ligand binding of a recombinant beta2-AR and subsequent recruitment of a recombinant beta-arrestin lead to the release of the transcriptional activator tTA, which upregulates transcription of a tTA-responsive luciferase gene. […] Compounds were screened as a concentration-titration series that ranged from 46 microM to 0.6 nM.
NCGC Assay Protocol Summary:
Tango cells were dispensed into white, solid, tissue-culture-treated 1536-well plates at 1500 cells/well in DMEM, containing 1% fetal bovine serum (FBS). Then, 23 nL of compounds or DMSO were delivered to each well using a pin tool. Plates were incubated at 37 degrees C, 5% CO2 for 18 hr. Then 2.5 uL luminescent substrate mix (in-house prepared: 150 mM Tris-Cl, pH 7.6, 3 mM MgCl2, 1% Triton X-100, 5 mM DTT, 0.5 mM CoA, 0.15 mM ATP, 0.44 mM D-luciferin, final concentrations) was added to each well. Plates were then incubated for 15 minutes at room temperature, and subsequently measured on a ViewLux plate reader for luminescent signal using a clear filter with a 10 second exposure and 2x binning. The %Activity was determined from the corrected luminescence values.
Concentration-response curves were fitted to the signals arising from the resulting luminescence. The concentration-effect curves were then classified based on curve quality (r2), response magnitude and degree of measured activity, and compounds were subsequently categorized based on their curve class.
Keywords: biased agonism, beta2-AR, beta-arrestin, GPCR, 7TMR, Tango, luminescence, MLSMR, MLPCN, NIH Roadmap, qHTS, NCGC
For orientation: In qHTS, concentration-response curves come from the screen itself.
Consider `CCN(CC)CC(O)COC(=O)C(O)(c1ccccc1)C1CCCCC1` (stereo not given), for which the activation is inactive: -0.502%.
On to `COc1ccc(OP(C)(=O)Nc2ccc(Br)cc2)cc1` (stereo not given), for which the activation was inactive: -0.0449%.
With `COc1ccccc1OP(C)(=O)Nc1c(C)n(C)n(-c2ccccc2)c1=O` (stereo not given) the figure was inactive: 0.353%; with `O=C(OCCCN1CCCC1)C(O)(c1ccccc1)C1CCCCC1` (stereo not given), inactive: -0.394%; with `CP(=O)(Oc1ccccc1)N1CCOC1=O` (stereo not given), inactive: -0.582%.
Then `CCc1ccc(OP(C)(=O)Nc2cccnc2)cc1` (stereo not given), with inactive: -0.0675%; and `CC(C)(C)c1ccc(OP(C)(=O)O)cc1`, with inactive: -0.306%; and `COc1ccccc1OP(C)(=O)Nc1ccccc1Br` (stereo not given), with inactive: -0.207%.
With `CP(=O)(Nc1ccc(Cl)cc1)Oc1ccc(F)cc1` (stereo not given) the figure was inactive: -0.617%; with `CN(C)C(=O)c1c([N+](=O)[O-])cc([N+](=O)[O-])cc1[N+](=O)[O-]`, inactive: -0.119%; with `CCOC(=O)c1ccc(NP(C)(=O)Oc2ccc(Cl)cc2)cc1` (stereo not given), inactive: -0.474%.
As for `CP(=O)(OC12CC3CC(CC(C3)C1)C2)OC12CC3CC(CC(C3)C1)C2`, the activation is inactive: 0.179%.
Regarding `Cc1cc(C)cc(OP(C)(=O)Nc2cccc(C(F)(F)F)c2)c1` (stereo not given), the activation was inactive: 0.843%.
Regarding `COc1ccccc1OP(C)(=O)Nc1ccc(C)c(C)c1` (stereo not given), the activation was inactive: -0.701%.
Then `COc1ccc(OP(C)(=O)Nc2ccccc2Br)cc1` (stereo not given), with inactive: -0.0905%.
With `Cc1nc2ccc3ccccc3c2o1.O=[N+]([O-])c1cc([N+](=O)[O-])c(O)c([N+](=O)[O-])c1` the figure was inactive: -0.0593%; with `CP(=O)(OCCOc1ccccc1)OCCOc1ccccc1`, inactive: 0.118%.
Consider `CP(=O)(Nc1ccc(Cl)cc1Cl)Oc1ccccc1` (stereo not given), for which the activation is inactive: -0.107%.
Take `COc1ccccc1OP(C)(=O)Nc1ccc(Br)cc1` (stereo not given): the activation is inactive: -0.614%.
With `COc1ccc(OP(C)(=O)Nc2ccccn2)cc1` (stereo not given) the figure was inactive: 0.219%; with `CN(C)CCOC(=O)C(O)(c1ccccc1)C1CCCC1` (stereo not given), inactive: -0.155%; with `O=[N+]([O-])c1cc([N+](=O)[O-])c(Nc2ccccn2)c([N+](=O)[O-])c1`, inactive: -0.603%.
Regarding `Cc1c(NP(C)(=O)Oc2ccc(C(C)C)cc2)c(=O)n(-c2ccccc2)n1C` (stereo not given), the activation was inactive: -0.485%.
As to `CP(=O)(Nc1ccccn1)Oc1ccccc1` (stereo not given), the activation is inactive: -0.127%.
Then `COc1ccccc1OP(C)(=O)Nc1ccc(C)cc1C` (stereo not given), with inactive: 0.288%; and `CCc1ccc(OP(C)(=O)O)cc1`, with inactive: -0.153%.
For the compound `CP(=O)(Nc1ccccc1F)Oc1ccccc1` (stereo not given), the activation was inactive: -0.156%.
Then `CC(C)c1ccc(OP(C)(=O)Nc2ccc(SC(F)(F)F)cc2)cc1` (stereo not given), with inactive: 0.448%; and `O=C(OCCN1CCN(CCOCc2ccccc2)CC1)C(O)(c1ccccc1)c1ccccc1`, with inactive: -1.68%; and `CCOC(=O)c1ccc(NP(C)(=O)Oc2ccc(F)cc2)cc1` (stereo not given), with inactive: 4.87%.
As for `COc1ccc(OP(C)(=O)Nc2ccc(SC(F)(F)F)cc2)cc1` (stereo not given), the activation is inactive: 0.111%.
As for `CCN(CC)CCCOC(=O)C(O)(c1ccccc1)C1CCCCC1` (stereo not given), the activation is inactive: -0.44%.
Then `CP(=O)(Nc1ccccc1)Oc1ccc(F)cc1` (stereo not given), with inactive: 5.15%; and `CCCCCOc1ccc(NP(C)(=O)Oc2ccc(Cl)cc2Cl)cc1` (stereo not given), with inactive: -0.115%.
Then `COc1ccc(OP(C)(=O)Nc2cccc(Br)c2)cc1` (stereo not given), with inactive: -0.227%.
With `CN(C)CCOC(=O)C(O)(c1ccccc1)C1CCCCC1` (stereo not given) the figure was inactive: -0.211%; with `COc1ccc(NP(C)(=O)Oc2ccccc2OC)cc1` (stereo not given), inactive: 0.0486%.
As for `O=[N+]([O-])c1ccc(OP2(=O)COCCO2)cc1` (stereo not given), the activation is inactive: 0.453%.
Then `Cc1cc(-c2cccc3ccccc23)c(C)cn1.O=[N+]([O-])c1cc([N+](=O)[O-])c(O)c([N+](=O)[O-])c1`, with inactive: 0.462%.
Then `CP(=O)(Nc1ccc(SC(F)(F)F)cc1)Oc1ccc(F)cc1` (stereo not given), with inactive: 0.129%; and `CCOP(C)(=S)SCC(=O)NC(C)(CC)C(=O)O` (stereo not given), with inactive: -0.184%.
Consider `CP(=O)(Nc1ccc2c(c1)OCCO2)Oc1ccccc1` (stereo not given), for which the activation was inactive: -1.01%.
Then `Cc1ccccc1NP(C)(=O)Nc1ccccc1C`, with inactive: -0.0657%; and `O=[N+]([O-])c1cc([N+](=O)[O-])c(-n2nnc3ccccc32)c([N+](=O)[O-])c1`, with inactive: -0.006%; and `Cc1nc2ccc3ccccc3c2s1.O=[N+]([O-])c1cc([N+](=O)[O-])c(O)c([N+](=O)[O-])c1`, with inactive: 0.127%.
Then `O=[N+]([O-])c1cc([N+](=O)[O-])c(Nc2nnnn2CCO)c([N+](=O)[O-])c1`, with inactive: -0.0997%.
As for `CC1=C2N=C(C=C3N=C(C(C)=C4[N-][C@@](C)([C@@H]5N=C1[C@](C)(CCC(=O)NC[C@@H](C)OP(=O)([O-])O[C@H]1[C@@H](O)[C@@H](n6cnc7cc(C)c(C)cc76)O[C@@H]1CO)[C@H]5CC(N)=O)[C@@](C)(CC(N)=O)[C@@H]4CCC(N)=O)[C@@](C)(CC(N)=O)[C@@H]3CCC(N)=O)C(C)(C)[C@@H]2CCC(N)=O.[C-]#N.[Co+3]`, the activation was inactive: -0.156%.
Turning to `COc1ccccc1OP(C)(=O)Nc1c(C)cccc1C` (stereo not given), the activation is inactive: -0.632%.
Then `CN1CCCCC1COC(=O)C1(O)c2ccccc2CCc2ccccc21` (stereo not given), with inactive: -3.04%; and `CP(=O)(Nc1ccc(SC(F)(F)F)cc1)Oc1ccccc1` (stereo not given), with inactive: -2.12%.
Turning to `CCCOc1ccc(NP(C)(=O)Oc2ccc(Cl)cc2)cc1` (stereo not given), the activation is inactive: 0.0045%.
Then `CC1=NCCc2c1[nH]c1ccccc21.O=[N+]([O-])c1cc([N+](=O)[O-])c(O)c([N+](=O)[O-])c1`, with inactive: -0.475%; and `COc1ccccc1OP(C)(=O)Nc1cccc(Br)c1` (stereo not given), with inactive: 0.129%; and `CCOC(=O)c1ccc(NP(C)(=O)Oc2cc(C)cc(C)c2)cc1` (stereo not given), with inactive: -0.406%.
In the case of `Cc1cc(C)cc(OP(C)(=O)Nc2ccc(C)cc2C)c1` (stereo not given), the activation is inactive: -0.0389%.
Then `Cc1ccc(C)c(NP(C)(=O)Oc2ccccc2)c1` (stereo not given), with inactive: -0.147%.
For the compound `CP(=O)(Nc1cccc(Br)c1)Oc1ccccc1` (stereo not given), the activation is inactive: -0.0978%.
In the case of `Cc1cc(C)cc(OP(C)(=O)Nc2ccccn2)c1` (stereo not given), the activation is inactive: -0.174%.
With `CCN(CC)CCCOC(=O)C(O)(c1ccccc1)c1ccccc1` the figure was inactive: 0.258%; with `O=[N+]([O-])c1cc([N+](=O)[O-])c(Nc2cccnc2)c([N+](=O)[O-])c1`, inactive: 0.344%; with `O=[N+]([O-])c1ccc2c(c1)C=Nc1ccccc1O2`, inactive: 0.0216%.
Then `CC(C)(C)c1ccc(OP(C)(=O)Nc2ccc(SC(F)(F)F)cc2)cc1` (stereo not given), with inactive: -0.901%; and `Cc1cccc(C)c1OP(C)(N)=O` (stereo not given), with inactive: -0.406%.
As to `COc1ccccc1OP(C)(=O)Nc1ccc(C)cc1` (stereo not given), the activation is inactive: -2.11%.
With `Cc1ccc(NP(C)(=O)Oc2ccccc2)c(C)c1` (stereo not given) the figure was inactive: -0.11%; with `CCOC(=O)c1ccc(NP(C)(=O)Oc2ccccc2)cc1` (stereo not given), inactive: 3.47%.
Then `Cc1cc(C)cc(OP(C)(N)=O)c1` (stereo not given), with inactive: -0.217%.
Then `COc1ccccc1OP(C)(=O)Nc1cc(Cl)ccc1C` (stereo not given), with inactive: 0.24%; and `COc1ccc(OP(C)(=O)Nc2cccc(F)c2)cc1` (stereo not given), with inactive: -0.662%.
With `CP(=S)(Nn1cnnc1)Oc1ccccc1` (stereo not given), the activation was inactive: 0.0044%.
With `CP(=O)(Nc1ccccc1Br)Oc1ccccc1` (stereo not given), the activation is inactive: -0.62%.
With `COc1ccccc1OP(C)(=O)Nc1ccccc1` (stereo not given) the figure was inactive: -0.0718%; with `Cc1cccc(C)c1OP(C)(=O)Nc1ccc(SC(F)(F)F)cc1` (stereo not given), inactive: -0.443%.
Turning to `CP(=O)(Nc1ccc(SC(F)(F)F)cc1)Oc1ccc(Cl)cc1` (stereo not given), the activation is inactive: -1.36%.
With `CP(=O)(Oc1ccccc1)OC(c1ccccc1)C(F)(F)F` (stereo not given) the figure was inactive: -0.0234%; with `CCc1ccc(OP(C)(=O)N2CCN(c3ccc([N+](=O)[O-])cc3)CC2)cc1` (stereo not given), inactive: 0.223%; with `CP(=O)(NC(=O)Nc1ccccc1)Oc1ccccc1` (stereo not given), inactive: -0.109%.
Then `Cc1cc(C)cc(OP(C)(=O)Nc2ccc(SC(F)(F)F)cc2)c1` (stereo not given), with inactive: 0.133%.
Then `CCOC(=O)c1ccc(NP(C)(=O)Oc2ccc(OC)cc2)cc1` (stereo not given), with inactive: -0.097%; and `CCOP(C)(=S)SCC(=O)NC(C)C(=O)O` (stereo not given), with inactive: -0.608%.
